Measurements taken from publication PMC4866688, “Trypanosoma brucei DHFR-TS Revisited: Characterisation of a Bifunctional and Highly Unstable Recombinant Dihydrofolate Reductase-Thymidylate Synthase” (PLoS Neglected Tropical Diseases, 2016).

The chains behind the UniProt entries cited, without tags or fusion partners. Where a name states a change or a piece, a line headed by the entry shows the natural chain unless it says otherwise.
UniProt Q27783: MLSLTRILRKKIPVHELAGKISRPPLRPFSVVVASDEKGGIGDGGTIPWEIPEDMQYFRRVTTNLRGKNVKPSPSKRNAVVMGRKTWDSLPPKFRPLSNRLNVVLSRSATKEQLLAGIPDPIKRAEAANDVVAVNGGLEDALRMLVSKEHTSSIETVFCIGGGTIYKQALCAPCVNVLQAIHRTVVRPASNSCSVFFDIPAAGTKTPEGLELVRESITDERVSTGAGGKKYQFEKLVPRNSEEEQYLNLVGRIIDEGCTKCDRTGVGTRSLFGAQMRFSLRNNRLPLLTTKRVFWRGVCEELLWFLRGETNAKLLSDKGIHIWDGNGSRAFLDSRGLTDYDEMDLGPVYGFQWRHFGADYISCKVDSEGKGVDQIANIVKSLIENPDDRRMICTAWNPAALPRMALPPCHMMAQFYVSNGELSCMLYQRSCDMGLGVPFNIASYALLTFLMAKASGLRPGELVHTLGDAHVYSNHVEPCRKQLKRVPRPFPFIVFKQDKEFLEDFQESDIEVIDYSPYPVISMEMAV

Legend:
[1] = biological target: Human TS; details: ref Shih et al. [11]; cited from earlier work
[2] = biological target: T. brucei DHFR (Tsf-TbDHFR-TS) (Trypanosoma brucei brucei, UniProt Q27783); experiment: Inhibition of DHFR activity of recombinant Tsf-TbDHFR-TS (spectrophotometric, 340 nm)

| SMILES | Ki [1] | Ki ([2]; DHFR Ki (competitive inhibition, global fit, Fig 5), varying DHF, fixed amounts of inhibitor, non-linear regression) | Ki ([2]; DHFR Ki, T. brucei, recombinant TbDHFR-TS, from IC50 (Cheng-Prusoff) or Morrison equation for tight binders, Inactive ** = no inhibition at 100 μM) |
| --- | --- | --- | --- |
| Nc1nc2[nH]cc(CCc3ccc(C(=O)N[C@@H](CCC(=O)O)C(=O)O)cc3)c2c(=O)[nH]1 [Pemetrexed, pemetrexed] | 110 nM |  |  |
| CCc1nc(N)nc(N)c1-c1ccc(Cl)cc1 [Pyrimethamine, pyrimethamine] |  | 17.6 ± 2.3 nM | 6.35 ± 0.49 nM |
